Source: patent US11407738B2 (Achillion Pharmaceuticals, Inc., priority 2015, dated 2022)

By UniProt entry, the sequences of proteins in these tests, tags left out. Residues count along the entry.
UniProt P00746, 26-253: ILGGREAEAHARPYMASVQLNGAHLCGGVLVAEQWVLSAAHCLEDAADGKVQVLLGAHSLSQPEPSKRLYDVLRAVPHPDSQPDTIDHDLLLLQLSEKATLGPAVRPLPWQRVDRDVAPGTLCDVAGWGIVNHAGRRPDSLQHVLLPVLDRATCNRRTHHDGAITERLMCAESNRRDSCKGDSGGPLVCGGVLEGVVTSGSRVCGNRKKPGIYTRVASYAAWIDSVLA

Biological target: Human Factor D (Homo sapiens (Human), UniProt P00746)
Experiment: Human Factor D assay
Format: biochemical
Details: Table 4; Factor D inhibition, substrate Z-L-Lys-SBzl
Procedure: Human Factor D (purified from human serum, Complement Technology, Inc.) at 80 nM final concentration is incubated with test compound at various concentrations for 5 min at room temperature in 50 mM Tris, 1M NaCl, pH 7.5. A synthetic substrate Z-L-Lys-SBzl and DTNB (Ellman's reagent) are added to final concentrations of 100 μM each. […] IC50 values are calculated by nonlinear regression of complement Factor D reaction rates as a function of test compound concentration.

`CC(=O)c1nn(CP(=O)(O)N2C[C@H](F)C[C@H]2C(=O)Nc2cccc(Br)n2)c2ccc(-c3cnc(C)nc3)cc12` [Compound 627, ((3-acetyl-5-(2-methylpyrimidin-5-yl)-1H-indazol-1-yl)methyl)((2S,4R)-2-((6-bromopyridin-2-yl)carbamoyl)-4-fluoropyrrolidin-1-yl)phosphinic acid] was tested, and the IC50 was greater than 10 µM.
